These results are taken from patent US6916822B2, “Phenoxyalkylamine derivatives useful as opioid δ receptor agonists” (Meiji Seika Kaisha, Ltd., priority 2000, dated 2005).

In this assay the target is T1, opioid δ receptor (Rattus norvegicus, UniProt P33533).
T1 construct: A membrane fraction of opioid δ receptor was prepared from the rat forebrain; from tissue; host or cells: rat forebrain membrane fraction
Put plainly: Binding affinity for opioid δ receptor ([3H]-Naltrindole binding experiment). As to conditions: membrane fraction from rat forebrain; [3H]-Naltrindole 1 nM; 25° C., 90 minutes; Ki calculated from IC50 by Cheng-Prusoff equation.
Consider `O=C(c1ccc(Cc2ccccc2OCCN2CCC(n3c(=O)[nH]c4ccccc43)CC2)cc1)N1CCCC1` [Example 15, 4-(1,3-Dihydro-2H-benzimidazol-2-on-1-yl)-1-[2-[2-(4-pyrrolidinocarbonyl-benzyl)phenoxy]ethyl]piperidine], for which the Ki – broadly, the equilibrium dissociation constant of an inhibitor or competing ligand from its target – was 281 nM.
In the case of `CCN(CC)C(=O)c1ccc(Cc2ccccc2OCCN2CCC3(CC2)C(=O)N(C)CN3c2ccccc2)cc1` [Example 36, 8-[2-[2-(4-Diethylcarbamoylbenzyl)phenoxy]ethyl]-3-methyl-1-phenyl-1,3,8-triazaspiro[4,5]decan-4-one] it was 240 nM; in that of `CCN(CC)C(=O)c1ccc(Cc2ccccc2OCCN2CCC(C(C)=O)(c3ccccc3)CC2)cc1` [Example 49, 4-Acetyl-1-[2-[2-(4-diethylcarbamoylbenzyl)phenoxy]ethyl]-4-phenylpiperidine], 943 nM; in that of `CC(C)N(C(=O)c1ccc(Cc2ccccc2OCCN2CCC3(CC2)C(=O)NCN3c2ccccc2)cc1)C(C)C` [Example 32, 8-[2-[2-(4-Diisopropylcarbamoylbenzyl)phenoxy]ethyl]-1-phenyl-1,3,8-triazaspiro[4,5]decan-4-one], 517 nM.
As to `CC(C)COC(=O)c1ccc(Cc2ccccc2OCCN2CCC(n3c(CO)nc4ccccc43)CC2)cc1` [Example 103, 1-[2-[2-(4-Isobutyloxycarbonylbenzyl)phenoxy]ethyl]-4-(2-hydroxymethyl-1H-benzimidazol-1-yl)piperidine], the Ki is 73 nM.
Consider `CCC(C)C(=O)c1ccc(Cc2ccccc2OCCN2CCC(n3c(CO)nc4ccccc43)CC2)cc1` (stereo not drawn) [Example 110, 4-(2-Hydroxymethyl-1H-benzimidazol-1-yl)-1-[2-[2-[4-(2-methylbutyryl)benzyl]phenoxy]ethyl]piperidine], for which the Ki is 88 nM.
